# Curated experimental data: melting point values

Values as listed in the OPERA 2.9 repository of K. Mansouri.

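The OPERA project collected these measurements from public sources as training and test data for property models. One number stands for a compound and property, with no spread given. Method and conditions are not stated for these values. The measured form (salt, isomer or mixture) is not always the one drawn. Unmarked limits or estimates from the upstream databases cannot be ruled out.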

Melting points are in °C.
The databases behind each value are named after "via".

* Clc1ccc(-c2c(Cl)c(Cl)cc(Cl)c2Cl)cc1Cl: MP 122 °C (via QSARDB)
* CCc1ccccc1OCC(=O)O: MP 125 °C (via OCHEM)
* O=C(Cn1c(Cl)nc2ccccc21)c1ccccc1: MP 169 °C (via OCHEM)
* O=C(O)CCS(=O)(=O)c1ccc(Cl)cc1: MP 182 °C (via OCHEM)
* Cc1cc(C)c(C)c(S(=O)(=O)NCC(=O)O)c1C: MP 166.5 °C (via OCHEM)
* O=C(O)CCCc1nc(-c2ccc(Cl)cc2)no1: MP 109 °C (via OCHEM)
* N#CCc1cccc2cccnc12: MP 85 °C (via OCHEM)
* COc1cc(OC)cc(-c2n[nH]c(=S)n2N)c1: MP 179 °C (via OCHEM)
* COC(=O)c1ccc2c(c1)CCN2: MP 75 °C (via OCHEM)
* NCc1nnc2n1CCCCC2: MP 71 °C (via OCHEM)
* Clc1nnc(-c2ccccc2)c2ccccc12: MP 157 °C (via OCHEM)
* NCCO.NCCO.NCCO.O=C(O)CN(CC(=O)O)CC(=O)O: MP -21 °C (via eChemPortal)
* CN(C)Cc1c(O)ccc2ccccc12: MP 74 °C (via OCHEM)
* NS(=O)(=O)c1ccc2c(c1)CCCN2: MP 162 °C (via OCHEM)
* CC(=O)N1CCCc2cc(S(=O)(=O)Cl)ccc21: MP 128 °C (via OCHEM)
* O=C(O)c1cc2c(F)cc(F)cc2[nH]1: MP 253 °C (via OCHEM)
* Cc1ccnc(NC(=O)C2CCNCC2)c1: MP 135 °C (via OCHEM)
* OCc1cc(Br)cc(CO)c1O: MP 165 °C (via OCHEM)
* O=Cc1cn(-c2ccccc2)nc1-c1ccncc1: MP 154 °C (via OCHEM)
* O=[N+]([O-])c1cc2cccc3ccc4cccc1c4c32: MP 191 °C (via PubChem)
* O=C(O)c1ccc(CS(=O)(=O)c2ccccc2)o1: MP 181 °C (via OCHEM)
* O=C(O)CN1C(=O)CSc2ccccc21: MP 152 °C (via OCHEM)
* N/C(=N\O)c1cccc([N+](=O)[O-])c1: MP 183 °C (via OCHEM)
* O=C(Nc1cccc2ccccc12)OCC(F)(F)F: MP 110 °C (via OCHEM)
* CC(=O)O[C@]1(C(C)=O)CC[C@H]2[C@@H]3CC(Cl)C4=CC(=O)CC[C@]4(C)[C@H]3CC[C@@]21C (stereo not given in full): MP 187.3 °C (via eChemPortal)
* COc1ccc2c(c1)CC[C@@H]1[C@@H]2CC[C@]2(C)[C@@H](OC(C)=O)CC[C@@H]12: MP 105 °C (via eChemPortal)
* O=C1C(=O)N(CO)c2ccccc21: MP 158 °C (via OCHEM)
* CC(CCO)CCO: MP -10 °C (via eChemPortal)
* O=C1CC(=O)CC2(CCCCC2)C1: MP 170 °C (via OCHEM)
* CS(=O)(=O)Nc1ccc(C(=O)CCl)cc1: MP 156 °C (via OCHEM)
* CC(=O)c1ccc2c3c(cccc13)CC2: MP 59 °C (via OCHEM)
* CC(O)c1cccc(N)c1 (centres undefined): MP 67.5 °C (via OCHEM)
* CCC(C(c1ccc(Cl)cc1)c1ccc(Cl)cc1)[N+](=O)[O-] (centres undefined): MP 65 °C (via OCHEM)
* Nc1nc(CCl)nc2sc3c(c12)CCCC3: MP 175 °C (via OCHEM)
* c1ccc2nc3c(ccc4ccccc43)cc2c1: MP 132 °C (via OCHEM, PubChem)
* CC(C)(C)C(N)=NO: MP 94 °C (via OCHEM)
* Cc1nc2ccccc2cc1C(=O)O: MP 244 °C (via OCHEM)
* C=CCSc1nnc(N)s1: MP 120 °C (via OCHEM)
* CN1CCN(C(N)=S)CC1: MP 180 °C (via OCHEM)
* Cc1cc(C)c(C(=O)O)c(=O)[nH]1: MP 235 °C (via OCHEM)
* O=C(O)COc1ccc2ccccc2c1Br: MP 159 °C (via OCHEM)
* Cc1cc(CC(=O)O)c(C)n1-c1ccc(Cl)cc1: MP 119 °C (via OCHEM)
* Clc1ccc(OCCBr)c(Br)c1: MP 31 °C (via OCHEM)
* CCCCCCCCC(=O)OCC(CC)(COC(=O)CCCCCCCC)COC(=O)CCCCCCCC: MP -36.7 °C (via OFMPub, eChemPortal)
* Cc1ccc(-c2noc(CCC(=O)O)n2)cc1: MP 144 °C (via OCHEM)
* CCCn1c(N)cc(=O)n(C)c1=O: MP 167 °C (via OCHEM)
* Nc1nnc2ccccn12: MP 230 °C (via OCHEM)
* CC(O)CO.CC(O)C[N+](C)(C)CCCCCC[N+](C)(C)CC(C)O.[OH-].[OH-] (centres undefined): MP -7.5 °C (via eChemPortal)
* CCCCCCCCCCCC(=O)OCC(C)(C)C=NCCOCCO: MP -16.48 °C (via eChemPortal)

Extract of 5 entries:

{"smiles": "Clc1ccc(-c2c(Cl)c(Cl)cc(Cl)c2Cl)cc1Cl", "MP (°C)": "122", "via": "QSARDB"}
{"smiles": "Clc1nnc(-c2ccccc2)c2ccccc12", "MP (°C)": "157", "via": "OCHEM"}
{"smiles": "CC(C)(C)C(N)=NO", "MP (°C)": "94", "via": "OCHEM"}
{"smiles": "Cc1cc(CC(=O)O)c(C)n1-c1ccc(Cl)cc1", "MP (°C)": "119", "via": "OCHEM"}
{"smiles": "CCCn1c(N)cc(=O)n(C)c1=O", "MP (°C)": "167", "via": "OCHEM"}